Test results reported in PMC3747596 (PLoS ONE, 2013).

Sequences of proteins named here, by UniProt entry; tags and fusion partners are left off.
UniProt P35372, whole entry: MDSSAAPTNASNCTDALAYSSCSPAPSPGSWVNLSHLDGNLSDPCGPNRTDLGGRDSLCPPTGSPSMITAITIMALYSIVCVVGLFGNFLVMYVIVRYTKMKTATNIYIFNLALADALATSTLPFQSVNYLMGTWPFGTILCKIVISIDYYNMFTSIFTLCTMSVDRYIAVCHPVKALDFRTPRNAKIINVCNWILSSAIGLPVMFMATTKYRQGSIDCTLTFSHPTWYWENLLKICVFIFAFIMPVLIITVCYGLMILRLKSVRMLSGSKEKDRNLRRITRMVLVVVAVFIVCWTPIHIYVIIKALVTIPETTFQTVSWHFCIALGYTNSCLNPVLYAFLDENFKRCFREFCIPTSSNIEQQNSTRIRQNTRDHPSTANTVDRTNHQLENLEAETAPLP

Legend:
[1] = molecular target: T1, μ opioid receptor (Homo sapiens, UniProt P35372); experiment: Radioligand displacement, μ; type: binding
T1 construct: expressed in transfected cells

[2] = molecular target: T2, δ opioid receptor (Homo sapiens, UniProt P41143); experiment: Radioligand displacement, δ; type: binding; conditions: radioligand displacement (Table 1)
T2 construct: expressed in transfected cells

Structure (SMILES): CC(C)[C@@H](CN1CC[C@@](C)(c2cccc(O)c2)[C@@H](C)C1)NC(=O)[C@H]1Cc2ccc(O)cc2CN1 [JDTic]
- Ki [1]: 3 nM
- Ki [2]: 44 nM
